## AlphaSeq binding of Ab-91 heavy chain variants to a spike HR2 peptide

Target: peptide PDVDLGDISGINAS, taken from heptad repeat 2 (HR2) of SARS-CoV-2 spike.

The variants keep the light chain, the linker and the frameworks of Ab-91 (scFv order VL, a 15-residue (Gly4Ser)3 linker, VH).
VL: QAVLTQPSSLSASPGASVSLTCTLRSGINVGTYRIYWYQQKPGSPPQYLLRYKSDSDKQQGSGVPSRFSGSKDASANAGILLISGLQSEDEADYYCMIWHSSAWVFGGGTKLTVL
VH: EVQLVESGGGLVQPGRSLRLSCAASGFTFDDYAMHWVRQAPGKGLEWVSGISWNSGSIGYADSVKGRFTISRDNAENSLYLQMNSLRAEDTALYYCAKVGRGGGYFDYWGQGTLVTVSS

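The starting antibody came from a phage panning campaign against this peptide. The library (AAYL51) carries one to three amino acid substitutions per variant, with no insertions or deletions. The assay is AlphaSeq: two haploid yeast populations carry antibody and antigen on their surface. The frequency of each diploid, read from paired DNA barcodes, reflects how well the two displayed proteins bind. A regression on co-assayed BCL2-family reference pairs converts the normalised counts of each replicate to an apparent Kd. There are three technical replicates.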

The parent's heavy chain CDRs are GFTFDDYAMH, GISWNSGSIGYADSVK, VGRGGGYFDY; each variant's own CDRs replace them letter for letter. All variants listed here change D107 of the VH, counted from its first residue. Kd is apparent (estimated from mating counts) and averaged on the log scale over replicates with a signal. Smaller is tighter. "nd" means that the variant was in the library but no mating with the target was seen in any replicate; the authors take this as a sign of poor binding, and no number exists. Background: pairings of library AAYL51 with three empty control strains gave a value in 21% of cases (median 34 µM, 5th percentile 1.8 µM). Values in that range, when seen in few replicates, are hard to tell from nonspecific mating.

The variant GFTFDDYAMH | GISWNSGSIGYADSVK | VGGGGGYWAY showed 13 nM (3 of 3 replicates).
The variant GFTFDDYAMH | GISWNSDSIGYADSVK | VGKGGGYFIY showed 3.3 nM (3 of 3 replicates).
The variant GFTFDDYAMH | GSSWNSGSIGYADSVK | VGRGGSYFWY showed nd (0 of 3 replicates).
The variant GFTFDDYAMH | GISWNSGSIGYADSVK | VGRGGGYFYY showed nd (0 of 3 replicates).
The variant GFTFDDYAMH | GISWNSGSIWYADSVK | VQRGGGYFVY showed 580 µM (3 of 3 replicates).
The variant GFTFDDYAMH | GISWNSGSIGYADSVK | VGRGGGLFGY showed nd (0 of 3 replicates).
The variant GFTFDDYAMH | GISWNSGSIGYADSPK | RGRGGGYFAY showed 140 µM (2 of 3 replicates).
The variant GFTFDDYAMH | GISWNSGSIGYADSVK | VGRGGGYFCY showed 14 µM (3 of 3 replicates).
The variant GFTFDDYAMH | GIIWNSGLIGYADSVK | VGRGGGYFMY showed 130 µM (2 of 3 replicates).
The variant GFLFDDYAMH | GISWNSGSIGYADSVW | VGRGGGYFYY showed 380 µM (2 of 3 replicates).
The variant GFTFDDYAMH | GIAWNSGSIGYADSVK | VGRGGGYFRY showed 5.9 µM (1 of 3 replicates).
The variant GFTFHDYAMH | GISWNKGSIGYADSVK | VGRGGGYFRY showed nd (0 of 3 replicates).
The variant GFTFDDYADH | GISWNSSSIGYADSVK | VGRGGGYFIY showed 20 µM (1 of 3 replicates).
The variant GFTFDDYAMH | GISWNSGSIGYNDSVK | PGRGGGYFNY showed 150 nM (3 of 3 replicates).
The variant GFTFDDYAMH | GISWNSGSIGYALSFK | VGRGGGYFGY showed 21 µM (2 of 3 replicates).
The variant GFKFDDYAMH | GISWNSGSIGYADSVK | VGTGGGYFGY showed nd (0 of 3 replicates).
The variant GFTFDDYVMH | IISWNSGSIGYADSVK | VGRGGGYFHY showed 52 µM (1 of 3 replicates).
The variant GFTFDDYAMV | GISWHSGSIGYADSVK | VGRGGGYFEY showed 210 µM (1 of 3 replicates).
The variant GFTFDDYAMH | GISWNSGSIGYADSVK | VGRGGGYFFY showed nd (0 of 3 replicates).
The variant GFTFDDYAMH | GISWNGGSIGYADSVK | VGRGGGYFCY showed 1.1 µM (3 of 3 replicates).
The variant GFTFDDYAMH | GISWNSGSIGYADHVK | VGRGGGYFFY showed nd (0 of 3 replicates).
The variant GFTFEDYAMH | GISWNSGSIRYADSVK | VGRGGGYFVY showed nd (0 of 3 replicates).
The variant GFTFYDYAMH | EISWNSGSIGYADSVK | VGRGGGYFHY showed 5.9 µM (1 of 3 replicates).
The variant GFVRDDYAMH | GISWNSGSIGYADSVK | VGRGGGYFVY showed nd (0 of 3 replicates).
The variant GFTTDDYAMH | GISWNSGSIGYNDSVK | VGRGGGYFQY showed nd (0 of 3 replicates).
The variant GFTFDDYAMH | GISWNSGSRGYADSVK | VGDGGGYFQY showed 16 µM (3 of 3 replicates).
The variant GFTFDDYAMH | GISWNSGSIGYADSVK | VGRGMGPFGY showed nd (0 of 3 replicates).
The variant GFTFDDYAMH | GISWNSGSIGYADSVK | VLRGGGYFRY showed nd (0 of 3 replicates).
The variant GFTFDDYAMH | GISWNSGSIGYRDSVK | KGRGGGYFRY showed 4.6 µM (1 of 3 replicates).
The variant GFTFDDYAMH | GISWNSGSIGYADSVK | VGRGGGYFVY showed 12 µM (1 of 3 replicates).
The variant GFTFDDYAMH | GISWNSGSIGYADSVK | VGRGSGNFMY showed nd (0 of 3 replicates).
The variant GFTFDDHAMH | GISWNSGSIGYADSVK | VGRGGGYFGY showed 7.8 µM (3 of 3 replicates).
The variant GDTFDDYAMH | GISWNSGSIGYADSVK | YGRGGGYFFY showed nd (0 of 3 replicates).

Repeated from above, the 5 best binders with a signal in all replicates:

CDR-H1	CDR-H2	CDR-H3	apparent Kd	replicates with signal
GFTFDDYAMH	GISWNSDSIGYADSVK	VGKGGGYFIY	3.3 nM	3 of 3
GFTFDDYAMH	GISWNSGSIGYADSVK	VGGGGGYWAY	13 nM	3 of 3
GFTFDDYAMH	GISWNSGSIGYNDSVK	PGRGGGYFNY	150 nM	3 of 3
GFTFDDYAMH	GISWNGGSIGYADSVK	VGRGGGYFCY	1.1 µM	3 of 3
GFTFDDHAMH	GISWNSGSIGYADSVK	VGRGGGYFGY	7.8 µM	3 of 3

Data: MIT Lincoln Laboratory AlphaSeq set, Engelhart et al. 2022, doi:10.1038/s41597-022-01779-4, as distributed in FLAb.